This test deals with WDR5 (Homo sapiens (Human), UniProt P61964). In words: TR-FRET binding assay (displacement of 10mer-Thr-FAM probe from WDR5). The conditions noted are these: read-out: Ki for Inhibition of WDR5 by TR-FRET assay. Background: In TR-FRET formats the signal depends on donor and acceptor labels being close together.

SMILES strings stand for the structures.

The Ki is the dissociation constant of the complex between target and ligand, obtained from inhibition or displacement.

With `Cn1ccn(Cc2cc(C(=O)NCc3ccc(Cl)c(Cl)c3)cc(-c3ccccc3C(F)(F)F)c2)c1=N` [Example 90, N-(3,4-Dichlorobenzyl)-5-((2-imino-3-methyl-2,3-dihydro-1H-imidazol-1-yl)methyl)-2′-(trifluoromethyl)-[1,1′-biphenyl]-3-carboxamide], the Ki amounted to 0.46 nM.
